Test results published in ChEMBL document CHEMBL5143750, “Bisubstrate Inhibitors of Severe Acute Respiratory Syndrome Coronavirus-2 Nsp14 Methyltransferase” (ACS Med Chem Lett, 2022).

Test: Metabolic stability in human liver S9 fraction assessed as half life at 1 micromol/L in presence of UDPGA measured upto 24 hrs by LC-MS/MS analysis
Assay type: ADME, subcellular
Conditions: s9, 24 h, 1 µM, dose 1 µmol/L
Method in brief: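 Compound was incubated in human liver S9 fraction supplemented with the cofactors NADPH (Phase I oxidation) and UDPGA (Phase II glucuronidation). Percentage of parent remaining was followed over the incubation, and data are mean ± SD.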

O=c1ccc2ccc(O)cc2o1 [UMBELLIFERONE]
t1/2: 3 min
